What was measured:
Cytochrome P450 2C9 = Cytochrome P450 2C9 (Homo sapiens, UniProt P11712)
Cytochrome P450 2D6 = Cytochrome P450 2D6 (Homo sapiens, UniProt P10635)
Cytochrome P450 2C8 = Cytochrome P450 2C8 (Homo sapiens, UniProt P10632)
Cytochrome P450 2C19 = Cytochrome P450 2C19 (Homo sapiens, UniProt P33261)

Sequences of proteins named here, by UniProt entry; tags and fusion partners are left off.
UniProt P11712, whole entry: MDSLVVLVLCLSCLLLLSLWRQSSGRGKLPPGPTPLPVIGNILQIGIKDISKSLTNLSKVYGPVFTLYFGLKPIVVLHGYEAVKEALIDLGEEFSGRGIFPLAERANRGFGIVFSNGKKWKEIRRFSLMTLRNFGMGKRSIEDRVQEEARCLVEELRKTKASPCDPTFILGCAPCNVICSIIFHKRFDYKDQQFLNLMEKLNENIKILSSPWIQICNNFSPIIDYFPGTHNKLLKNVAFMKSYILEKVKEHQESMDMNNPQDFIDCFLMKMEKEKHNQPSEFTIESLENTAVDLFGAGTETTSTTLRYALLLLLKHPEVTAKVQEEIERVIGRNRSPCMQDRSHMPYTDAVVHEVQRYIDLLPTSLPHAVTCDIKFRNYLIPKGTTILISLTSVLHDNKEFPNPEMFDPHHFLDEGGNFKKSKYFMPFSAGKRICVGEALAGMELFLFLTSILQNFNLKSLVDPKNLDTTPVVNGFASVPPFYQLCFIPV
UniProt P10635, whole entry: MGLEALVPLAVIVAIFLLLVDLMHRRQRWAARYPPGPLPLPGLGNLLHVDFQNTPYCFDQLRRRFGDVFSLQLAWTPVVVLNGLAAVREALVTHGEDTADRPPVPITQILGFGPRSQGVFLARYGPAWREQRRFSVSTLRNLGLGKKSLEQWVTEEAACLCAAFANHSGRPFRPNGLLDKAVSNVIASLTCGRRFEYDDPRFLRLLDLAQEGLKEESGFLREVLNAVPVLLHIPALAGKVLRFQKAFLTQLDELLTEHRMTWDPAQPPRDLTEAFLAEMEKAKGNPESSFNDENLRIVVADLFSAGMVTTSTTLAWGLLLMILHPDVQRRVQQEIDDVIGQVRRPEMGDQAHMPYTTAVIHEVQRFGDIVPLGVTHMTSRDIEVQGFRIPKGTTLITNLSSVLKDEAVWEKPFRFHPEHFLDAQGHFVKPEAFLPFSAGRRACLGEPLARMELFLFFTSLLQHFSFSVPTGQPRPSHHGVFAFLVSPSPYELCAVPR
UniProt P10632, whole entry: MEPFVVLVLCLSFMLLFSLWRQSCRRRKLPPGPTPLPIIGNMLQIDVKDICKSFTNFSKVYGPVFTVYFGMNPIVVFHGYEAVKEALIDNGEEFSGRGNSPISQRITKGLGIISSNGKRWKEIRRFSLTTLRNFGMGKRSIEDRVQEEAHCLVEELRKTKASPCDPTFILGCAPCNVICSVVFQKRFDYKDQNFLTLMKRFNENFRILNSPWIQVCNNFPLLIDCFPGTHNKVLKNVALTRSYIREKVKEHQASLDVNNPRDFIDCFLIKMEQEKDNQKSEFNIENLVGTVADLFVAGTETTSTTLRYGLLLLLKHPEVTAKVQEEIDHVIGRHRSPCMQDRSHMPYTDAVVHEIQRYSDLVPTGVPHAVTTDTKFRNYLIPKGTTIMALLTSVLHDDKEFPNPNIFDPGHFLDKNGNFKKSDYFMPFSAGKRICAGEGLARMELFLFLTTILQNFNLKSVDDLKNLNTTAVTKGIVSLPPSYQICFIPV
UniProt P33261, whole entry: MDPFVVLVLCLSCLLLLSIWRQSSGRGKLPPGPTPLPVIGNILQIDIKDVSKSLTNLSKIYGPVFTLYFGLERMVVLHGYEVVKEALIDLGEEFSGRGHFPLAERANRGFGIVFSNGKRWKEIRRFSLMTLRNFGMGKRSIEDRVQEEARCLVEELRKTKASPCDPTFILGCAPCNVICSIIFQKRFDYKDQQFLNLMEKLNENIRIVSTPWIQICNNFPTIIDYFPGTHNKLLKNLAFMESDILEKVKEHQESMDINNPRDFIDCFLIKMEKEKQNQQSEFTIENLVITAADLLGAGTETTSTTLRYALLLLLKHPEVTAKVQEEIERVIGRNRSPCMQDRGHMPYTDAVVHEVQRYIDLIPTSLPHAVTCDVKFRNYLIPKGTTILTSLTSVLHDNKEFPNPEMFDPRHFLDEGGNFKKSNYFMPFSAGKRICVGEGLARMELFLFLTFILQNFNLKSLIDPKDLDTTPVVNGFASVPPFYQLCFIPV

Structure (SMILES)	IC50 (Cytochrome P450 2C9) [µM]	IC50 (Cytochrome P450 2D6) [µM]	IC50 (Cytochrome P450 2C8) [µM]	IC50 (Cytochrome P450 2C19) [µM]
CC(C)COCC(CN(Cc1ccccc1)c1ccccc1)N1CCCC1 (stereo not drawn) [BEPRIDIL]	> 30			
C#C[C@]1(O)CC[C@H]2[C@@H]3CCC4=Cc5oncc5C[C@]4(C)[C@H]3CC[C@@]21C [DANAZOL]	1.44	2.74		
COC(=O)C1=C(C)NC(C)=C(C(=O)OC(C)C)C1c1cccc2nonc12 (stereo not drawn) [ISRADIPINE]			5	
O=c1[nH]c2ccccc2n1C1CCN(CCCC(c2ccc(F)cc2)c2ccc(F)cc2)CC1 [PIMOZIDE]	> 30	> 30		> 30
O=c1c(O)c(-c2ccc(O)c(O)c2)oc2cc(O)cc(O)c12 [QUERCETIN]	10.2			
